What was measured:
[1] = tested on: tyrosine kinase pathway proteins (EGFR, p-EGFR, Akt, p-Akt, Erk1/2, p-Erk1/2) in HepG2 cells; test: Western blot of tyrosine kinase pathway proteins in HepG2; format: cell-based; settings: HepG2, 48 h, lower and higher concentrations compared to control
[2] = tested on: angiogenesis pathway proteins (VEGFR, Akt, p-Akt, Erk1/2, p-Erk1/2) in HUVEC cells; test: Antiangiogenic effect, Western blot of angiogenesis pathway proteins in HUVEC; format: cell-based, Human; settings: 48 h
[3] = higher concentrations compared to controls

CNC(=O)c1cc(Oc2ccc(NC(=O)Nc3ccc(Cl)c(C(F)(F)F)c3)cc2)ccn1 [Sorafenib, 4-(4-(3-(4-Chloro-3-(trifluoromethyl)phenyl)ureido)phenoxy)-N-methylpicolinamide, reference compound]
decreased: Total Erk1/2 expression [1] | p-Akt expression ([2]; compared to control, Ru3S and sorafenib high and low, Ru4S high concentration) | Total VEGFR expression ([2]; higher concentrations compared to control) | Total Erk1/2 expression [2, 3] | p-Erk1/2 expression [2, 3]

Source: publication PMC10983010 (Journal of Medicinal Chemistry, 2024)
